{"sequences": {"note": "Chains of the proteins cited; added tags and fusions are not shown. Residues count along the entry.", "UniProt P40337, 54-213": "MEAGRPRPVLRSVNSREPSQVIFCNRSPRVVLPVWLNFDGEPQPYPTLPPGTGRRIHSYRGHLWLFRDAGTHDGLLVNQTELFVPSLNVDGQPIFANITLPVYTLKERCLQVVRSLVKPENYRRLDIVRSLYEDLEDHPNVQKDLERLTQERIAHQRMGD"}, "source": "paper PMC6430500", "about": "“3-Fluoro-4-hydroxyprolines: Synthesis, Conformational Analysis, and Stereoselective Recognition by the VHL E3 Ubiquitin Ligase for Targeted Protein Degradation” (Journal of the American Chemical Society, 2018)", "origin": "cited, not measured here", "target": "VBC and Brd4BD2 (Homo sapiens, UniProt O60885+P40337)", "conditions": "values previously measured; cited from earlier work", "data": [{"smiles": "Cc1ncsc1-c1ccc(CNC(=O)[C@@H]2C[C@@H](O)CN2C(=O)[C@@H](NC(=O)COCCOCCOCCNC(=O)C[C@@H]2N=C(c3ccc(Cl)cc3)c3c(sc(C)c3C)-n3c(C)nnc32)C(C)(C)C)cc1", "note": "[MZ1, reference compound]", "values": [{"measurement": "α (cooperativity)", "value": "9.5–17.6"}]}]}
